How the values were obtained:
Pin1_72/14-3-3 complex = Pin1_72/14-3-3 complex (Homo sapiens, UniProt P61981); experiment: Fluorescence anisotropy compound titration, Pin1_72/14-3-3 (CC50); format: binding
Pin1_72/14-3-3γ = Pin1_72/14-3-3γ (Homo sapiens, UniProt P61981+Q13526); experiment: Fluorescence anisotropy protein titration, Pin1_72/14-3-3γ at constant compound; format: binding; settings: based on internal DMSO control and 100 μM fragment

Chains of the proteins cited; added tags and fusions are not shown.
UniProt P61981, whole entry: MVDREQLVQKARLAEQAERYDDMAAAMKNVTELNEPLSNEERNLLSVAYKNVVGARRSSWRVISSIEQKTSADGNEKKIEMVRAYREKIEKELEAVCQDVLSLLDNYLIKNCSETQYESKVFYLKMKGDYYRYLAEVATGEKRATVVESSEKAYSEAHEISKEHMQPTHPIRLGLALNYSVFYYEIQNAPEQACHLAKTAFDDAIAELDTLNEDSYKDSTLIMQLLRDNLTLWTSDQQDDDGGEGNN

| SF (fold stabilization) (Pin1_72/14-3-3γ) | Compound | activity in FA assay (Pin1_72/14-3-3 complex) |
| --- | --- | --- |
|  | O=Cc1ccc(-n2ccnc2)cc1 | not active |
| 1.3 | O=Cc1ccc(-n2ccnc2Br)nc1 [16d, 6-(2-bromo-1H-imidazol-1-yl)pyridine-3-carbaldehyde] | significant complex formation |

From US20230142739A1
